From BindingDB's records for 18479118, “Exploiting protein fluctuations at the active-site gorge of human cholinesterases: further optimization of the design strategy to develop extremely potent inhibitors” (2008)

Sequences of proteins named here, by UniProt entry; tags and fusion partners are left off. Residues count along the entry.
UniProt P22303, 32-614 limits assumed: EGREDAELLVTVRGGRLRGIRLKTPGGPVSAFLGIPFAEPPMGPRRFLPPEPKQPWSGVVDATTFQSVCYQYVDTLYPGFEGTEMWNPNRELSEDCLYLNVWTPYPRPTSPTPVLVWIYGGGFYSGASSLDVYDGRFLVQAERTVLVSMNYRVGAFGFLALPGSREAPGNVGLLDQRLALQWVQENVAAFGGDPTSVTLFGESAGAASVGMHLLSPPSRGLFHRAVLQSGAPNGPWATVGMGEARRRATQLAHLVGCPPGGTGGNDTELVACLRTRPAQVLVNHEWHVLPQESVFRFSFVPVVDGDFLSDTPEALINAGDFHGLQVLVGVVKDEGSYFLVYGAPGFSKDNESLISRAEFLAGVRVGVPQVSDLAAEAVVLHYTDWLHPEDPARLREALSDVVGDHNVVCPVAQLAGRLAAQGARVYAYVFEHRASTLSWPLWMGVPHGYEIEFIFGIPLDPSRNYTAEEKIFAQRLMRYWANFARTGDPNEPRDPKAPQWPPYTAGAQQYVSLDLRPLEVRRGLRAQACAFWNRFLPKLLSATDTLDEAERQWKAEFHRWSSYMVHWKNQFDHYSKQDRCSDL
UniProt P23795, 31-613 limits assumed: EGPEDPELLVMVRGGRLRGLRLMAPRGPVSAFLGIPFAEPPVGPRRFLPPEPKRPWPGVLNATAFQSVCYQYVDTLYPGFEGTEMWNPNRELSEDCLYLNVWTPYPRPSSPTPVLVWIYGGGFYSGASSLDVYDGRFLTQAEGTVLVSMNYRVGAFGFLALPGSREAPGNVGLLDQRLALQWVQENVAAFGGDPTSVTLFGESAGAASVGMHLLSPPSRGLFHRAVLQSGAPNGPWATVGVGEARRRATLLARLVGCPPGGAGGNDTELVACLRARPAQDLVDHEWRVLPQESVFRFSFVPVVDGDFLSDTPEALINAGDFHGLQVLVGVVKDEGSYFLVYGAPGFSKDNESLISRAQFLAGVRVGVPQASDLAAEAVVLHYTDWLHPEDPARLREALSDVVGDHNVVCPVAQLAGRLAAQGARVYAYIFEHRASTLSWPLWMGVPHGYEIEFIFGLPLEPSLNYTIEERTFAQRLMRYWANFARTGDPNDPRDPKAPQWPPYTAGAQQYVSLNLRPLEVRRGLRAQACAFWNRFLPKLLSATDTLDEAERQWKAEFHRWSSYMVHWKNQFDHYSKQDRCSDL

Legend:
[1] = molecular target: Acetylcholinesterase (Homo sapiens, UniProt P22303); assay: ASSAY_NAME: ChEMBL_555809 (CHEMBL965669) DESCRIPTION: Inhibition of human AChE
[2] = molecular target: Acetylcholinesterase (Bos taurus, UniProt P23795); assay: ASSAY_NAME: ChEMBL_552468 (CHEMBL999085) DESCRIPTION: Inhibition of bovine AChE

SMILES | kon (M-1-s-1) [1] [M⁻¹ s⁻¹] | IC50 [2] [mM]
CCOP(=O)(O)N(c1ccc(SC)c(C)c1)C(C)C | 0.33 | 
CC[N+](CC)(CC)CCOc1cccc(OCC[N+](CC)(CC)CC)c1OCC[N+](CC)(CC)CC |  | 8.76
